## Apparent affinities of Ab-95 variants for a coronavirus HR2 peptide

Values reported by Engelhart et al. 2022, doi:10.1038/s41597-022-01779-4 (FLAb copy).

Antigen: PDVDLGDISGINAS, a 14-residue peptide of the SARS-CoV-2 spike HR2 region.

Each scFv is VH, three GGGGS repeats, VL, as in the parent Ab-95, and differs from it in the CDRs of the light chain only.
VH: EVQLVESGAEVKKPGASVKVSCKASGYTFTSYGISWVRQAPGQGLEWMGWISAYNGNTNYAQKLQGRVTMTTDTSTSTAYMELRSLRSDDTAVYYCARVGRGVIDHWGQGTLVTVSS
VL: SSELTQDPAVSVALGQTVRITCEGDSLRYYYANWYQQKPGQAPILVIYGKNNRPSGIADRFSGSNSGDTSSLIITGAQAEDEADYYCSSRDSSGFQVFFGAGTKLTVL

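The parent was found by panning a naive human phage display library on the peptide. AAYL52 was designed without a model: most single CDR substitutions and a random sample of double and triple ones. AlphaSeq pools MATa yeast showing the antibodies with MATalpha yeast showing the peptide. After mating in shaken culture at 30 °C for 16 h, diploids were selected and their barcode pairs sequenced. Each replicate has its own calibration line, from reference interactions of the BCL2 family. There are three technical replicates.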

The parent's light chain CDRs are EGDSLRYYYAN, GKNNRPS, SSRDSSGFQVF; each variant's own CDRs replace them letter for letter.
Affinities are written as log10 Kd with Kd in nM; a lower number is a better binder.
"n.d." means that the variant was in the library but no mating with the target was seen in that replicate; the authors take this as a sign of poor binding, and no number exists.
For reference, the parent read 2.31 as the reference entry and 2.25 as a member of this library.
Nonspecific signal, from three strains lacking the peptide, appeared in 28% of pairings of library AAYL52, centred on 3.91 (5% of these signals below 2.90); values are not corrected for it. The control count says in how many pairings with the empty strains this scFv gave a signal, with their mean in brackets.

CDR-L1	CDR-L2	CDR-L3	replicates, log10 nM	control signals
EGDSLRYYYAN	GKWNRPS	SSRDSSKFGVF	5.26 4.27 3.00	6/9 (4.01)
EGDSLELYYAN	GKNNRPS	SFRDSSGFQVF	n.d. 5.41 n.d.	2/9 (3.24)
ERDSLRYYYAN	GNNNRPS	SSRASSGFQVF	3.04 3.52 2.90	1/9 (3.85)
EGDSLGYWYAN	GKNNRPS	SSRDSSGFQVF	2.33 2.11 2.37	2/9 (3.82)
EEDSCRYYYAN	GKNNRRS	SSRDSSGFQVF	n.d. n.d. n.d.	1/9 (4.18)
EGDSLRYYYKN	GKNNRPS	SSRDSSGFQTG	3.66 2.87 3.83	0/9
EGDSLRYYTAN	GKNNRPS	SSRDSSGFQVF	1.94 2.09 1.65	4/9 (3.98)
EEDSLRYYYAN	GKNNRPS	SSRISSGFQVF	n.d. n.d. n.d.	0/9
EGDSLRYYYAN	EKNNSPS	SSRDSSGVQVF	4.47 n.d. n.d.	1/9 (3.36)
EGDSLRYYYYN	GKNNCMS	SSRDSSGFQVF	3.99 n.d. n.d.	1/9 (2.91)
EGNSLRYYYCN	GKNNRPS	SSRDSHGFQVF	2.92 3.28 3.31	3/9 (3.94)
EGDSLCYYYAN	GKNNRPS	SSRNSSGFQVF	n.d. 4.34 3.17	2/9 (3.35)
EGDSLRYYYAN	GKNNLRS	SSRDSSGFQVF	3.15 3.34 n.d.	2/9 (3.43)
PGDSLRYYYAS	GKNNRPS	YSRDSSGFQVF	3.82 n.d. n.d.	1/9 (3.95)
YGDSLRYYYAN	GKANRPS	SSRRSSGFQVF	5.49 4.08 n.d.	5/9 (3.52)
EGDSLRYYYAN	GLNNFPS	SSVDSSGFQVF	3.67 4.58 n.d.	4/9 (3.65)
EGDSLRYYYAN	GSNNRPS	SSRDSSGFQWF	2.90 3.05 3.81	3/9 (4.65)
EGDSHRYYYAN	GKNLRPS	SSRISSGFQVF	n.d. n.d. n.d.	0/9
EGDSLRYYNAN	GKNNRTF	SSRDSSGFQVF	2.06 2.69 1.88	4/9 (4.27)
EGDSLRYYYAN	QPNNRPE	SSRDSSGFQVF	n.d. n.d. n.d.	1/9 (4.09)
EGDSLRYYYAN	GKNNRPL	RSRDSSGFQVG	4.14 n.d. 3.21	0/9
EGDSLRYYYDN	GKNNRPS	SSRNSSGVQVF	n.d. n.d. n.d.	0/9
EGDSLDFYYAN	GKNNRPS	SHRDSSGFQVF	2.75 2.74 2.83	4/9 (3.99)
EGDSLRYTYAQ	GKNNRPS	SSRCSSGFQVF	2.37 3.22 1.77	5/9 (3.76)
EGDSLKWYYAN	CKNNRPS	SSRDSSGFQVF	4.52 4.85 n.d.	4/9 (4.07)
EGDSLQYYYAN	GKNNRPS	YSTDSSGFQVF	4.47 3.58 2.72	1/9 (3.65)
EGDSLRYYWAN	GKNTRPS	SSRDSSGFQYF	3.34 3.65 3.51	5/9 (4.23)
EGDSLHYYYAN	GKNNRPS	VSEDSSGFQVF	2.77 2.16 2.26	2/9 (4.26)
EGDNLRYYYAN	GKNNRPS	SVRDSSGFQVF	2.78 3.10 4.71	3/9 (3.87)
EIDSNRYYYAN	GKNNRPS	SSNDSSGFQVF	4.72 2.94 2.49	4/9 (4.25)
EGDSLRYYYAE	GKNNNPS	SSRDSLGFQVF	n.d. n.d. n.d.	1/9 (3.43)
EGDSLRYYMAN	GKNNRPS	ISRDYSGFQVF	4.88 n.d. 3.48	1/9 (3.45)
EGDNLRYYYAN	GKNNRPS	SDRDSSGFGVF	2.43 2.98 2.58	2/9 (2.98)
EGDSLRSYYAR	GKNNRPS	SSRDSGGFQVF	4.14 n.d. n.d.	0/9
IGDSLRYYYAN	GKNNRWG	SSRDSSGFQVF	2.25 3.14 3.05	0/9
EPDSLRYWFAN	GKNNRPS	SSRDSSGFQVF	3.44 n.d. n.d.	2/9 (3.72)
EGDSLRYYYAN	GKANRPS	SSRDSSPEQVF	3.68 3.17 3.17	4/9 (4.35)
EGDSLRYYYAN	GKNNRDS	ESRDSSGQQVF	2.14 1.95 2.45	1/9 (3.54)
EGDWLRYYYAN	GKYNRPS	SSRDSSGRQVF	3.01 4.90 3.21	3/9 (3.78)

The 6 strongest on average among those seen in every replicate, once more:

| CDR-L1 | CDR-L2 | CDR-L3 | replicates, log10 nM | control signals |
|---|---|---|---|---|
| EGDSLRYYTAN | GKNNRPS | SSRDSSGFQVF | 1.94 2.09 1.65 | 4/9 (3.98) |
| EGDSLRYYYAN | GKNNRDS | ESRDSSGQQVF | 2.14 1.95 2.45 | 1/9 (3.54) |
| EGDSLRYYNAN | GKNNRTF | SSRDSSGFQVF | 2.06 2.69 1.88 | 4/9 (4.27) |
| EGDSLGYWYAN | GKNNRPS | SSRDSSGFQVF | 2.33 2.11 2.37 | 2/9 (3.82) |
| EGDSLHYYYAN | GKNNRPS | VSEDSSGFQVF | 2.77 2.16 2.26 | 2/9 (4.26) |
| EGDSLRYTYAQ | GKNNRPS | SSRCSSGFQVF | 2.37 3.22 1.77 | 5/9 (3.76) |